The results in this text go back to patent publication US8480647B2, “Delivery device for delivering bioactive agents to internal tissue in a body” (Bioprotect Ltd., priority 2007, dated 2013).

Data set [1] can be described thus: Release of loaded agents from poly(caprolactone-L-lactide)/PEG porogen balloons. As to conditions: for period of constant release from balloon: loaded with 10% w/v solution. Format: physicochemical. The procedure:
In a typical experiment, dichloromethane solutions of poly(caprolactone-L-lactide) 70:30 w/w, Mw=100,000 and polyethylene glycol Mw=400 (PEG400) and PEG2000 mixed at a 1, 5, 10 and 20 w/w % per polymer were used for producing balloons by dipping as described above. The balloons were immersed in water to allow the leach-out of the water soluble PEG. The balloons were analyzed for pore size, uniformity of pores throughout the membrane, and diffusion of LHRH hormone and BSA (bovine serum albumin) as representative protein. Uniform micron size holes of a similar size were generated for the 1 and 5% PEG but more holes for the 5%, while the 20% PEG generated much larger holes throughout the wall which also affects the strength of the wall. […] The balloon remain inflated for about 4 months in 0.1M phosphate buffer solution at 37° C. before signs of degradation occur measured by a significant decrease in molecular weight and change in the flexibility and clarity of the balloons. In a continuation experiment, lyophilized powder of LHRH (10 mg) on dextrose (100 mg) was dispersed in glycerol (100 mg) and injected into the 10 mm diameter balloon and release under physiological conditions was determined.

A short description of data set [2]: Release from L-PLA-co PEG5000 hydrogel-wall balloons in aqueous media. Format: physicochemical. Particulars: 1 cm balloons of L-PLA-co PEG5000 triblock or 50:50 mixture with L-PLA, 200 and 300 micron wall thicknesses. The procedure:
In a similar experiment, biodegradable balloons of 1 cm diameter were prepared from triblock copolymers of L-PLA-co PEG5000, Mw=80,000 or in a 50:50 mixture with L-PLA Mw=120,000 by the solvent casting on a gelatin mold method. Balloons with 200 and 300 micron wall thicknesses were prepared. These balloons swell when inserted in aqueous media to form hydrogel walls which are permeable to water soluble molecules.

Take bovine serum albumin [BSA]: the “period of constant release from balloon” value in data set [1] (5% PEG balloons of poly(caprolactone-L-lactide) 70:30) is listed as “a few months”; in data set [1] (20% PEG balloons of poly(caprolactone-L-lactide) 70:30), “weeks”. In addition, the “release behaviour in comparison with the other loaded agents” value in data set [1] (poly(caprolactone-L-lactide)/PEG balloons) is on record as “released for a longer time at low concentrations compared with the LHRH”. For the same substance, the “release from hydrogel-wall balloons” value in data set [2] is recorded as “released at a very low level”.
